{"sequences": {"note": "Protein sequences, listed by entry. Tags and fused reporters are not part of them. Lines headed by an entry give the natural chain unless they say otherwise; changes in a name come on top.", "UniProt P42338": "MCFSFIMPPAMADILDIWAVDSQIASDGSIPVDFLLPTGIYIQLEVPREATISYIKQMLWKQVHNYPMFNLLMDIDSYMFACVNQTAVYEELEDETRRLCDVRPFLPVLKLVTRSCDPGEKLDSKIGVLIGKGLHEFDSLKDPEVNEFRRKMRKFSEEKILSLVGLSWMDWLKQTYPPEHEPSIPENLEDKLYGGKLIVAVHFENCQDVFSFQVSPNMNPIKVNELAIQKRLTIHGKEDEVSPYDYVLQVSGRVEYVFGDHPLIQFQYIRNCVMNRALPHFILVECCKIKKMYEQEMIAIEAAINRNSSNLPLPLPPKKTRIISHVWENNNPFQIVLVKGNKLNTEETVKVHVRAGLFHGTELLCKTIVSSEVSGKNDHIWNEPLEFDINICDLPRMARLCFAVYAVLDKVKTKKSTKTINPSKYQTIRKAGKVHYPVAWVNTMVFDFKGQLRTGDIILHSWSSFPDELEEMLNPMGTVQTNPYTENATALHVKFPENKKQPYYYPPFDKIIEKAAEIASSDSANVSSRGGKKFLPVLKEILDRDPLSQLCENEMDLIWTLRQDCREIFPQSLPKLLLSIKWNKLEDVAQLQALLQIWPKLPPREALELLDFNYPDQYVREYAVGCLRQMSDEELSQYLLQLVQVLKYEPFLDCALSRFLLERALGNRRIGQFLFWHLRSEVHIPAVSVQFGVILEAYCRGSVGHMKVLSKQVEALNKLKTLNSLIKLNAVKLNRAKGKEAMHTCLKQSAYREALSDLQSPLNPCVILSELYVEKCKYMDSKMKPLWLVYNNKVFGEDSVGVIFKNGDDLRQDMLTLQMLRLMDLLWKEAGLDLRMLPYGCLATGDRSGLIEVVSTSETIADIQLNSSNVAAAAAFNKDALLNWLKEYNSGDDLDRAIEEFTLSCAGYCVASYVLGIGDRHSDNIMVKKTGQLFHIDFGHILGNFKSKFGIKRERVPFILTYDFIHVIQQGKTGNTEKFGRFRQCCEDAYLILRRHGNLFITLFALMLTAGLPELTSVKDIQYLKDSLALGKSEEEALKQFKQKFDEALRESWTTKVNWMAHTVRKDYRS", "UniProt P48736": "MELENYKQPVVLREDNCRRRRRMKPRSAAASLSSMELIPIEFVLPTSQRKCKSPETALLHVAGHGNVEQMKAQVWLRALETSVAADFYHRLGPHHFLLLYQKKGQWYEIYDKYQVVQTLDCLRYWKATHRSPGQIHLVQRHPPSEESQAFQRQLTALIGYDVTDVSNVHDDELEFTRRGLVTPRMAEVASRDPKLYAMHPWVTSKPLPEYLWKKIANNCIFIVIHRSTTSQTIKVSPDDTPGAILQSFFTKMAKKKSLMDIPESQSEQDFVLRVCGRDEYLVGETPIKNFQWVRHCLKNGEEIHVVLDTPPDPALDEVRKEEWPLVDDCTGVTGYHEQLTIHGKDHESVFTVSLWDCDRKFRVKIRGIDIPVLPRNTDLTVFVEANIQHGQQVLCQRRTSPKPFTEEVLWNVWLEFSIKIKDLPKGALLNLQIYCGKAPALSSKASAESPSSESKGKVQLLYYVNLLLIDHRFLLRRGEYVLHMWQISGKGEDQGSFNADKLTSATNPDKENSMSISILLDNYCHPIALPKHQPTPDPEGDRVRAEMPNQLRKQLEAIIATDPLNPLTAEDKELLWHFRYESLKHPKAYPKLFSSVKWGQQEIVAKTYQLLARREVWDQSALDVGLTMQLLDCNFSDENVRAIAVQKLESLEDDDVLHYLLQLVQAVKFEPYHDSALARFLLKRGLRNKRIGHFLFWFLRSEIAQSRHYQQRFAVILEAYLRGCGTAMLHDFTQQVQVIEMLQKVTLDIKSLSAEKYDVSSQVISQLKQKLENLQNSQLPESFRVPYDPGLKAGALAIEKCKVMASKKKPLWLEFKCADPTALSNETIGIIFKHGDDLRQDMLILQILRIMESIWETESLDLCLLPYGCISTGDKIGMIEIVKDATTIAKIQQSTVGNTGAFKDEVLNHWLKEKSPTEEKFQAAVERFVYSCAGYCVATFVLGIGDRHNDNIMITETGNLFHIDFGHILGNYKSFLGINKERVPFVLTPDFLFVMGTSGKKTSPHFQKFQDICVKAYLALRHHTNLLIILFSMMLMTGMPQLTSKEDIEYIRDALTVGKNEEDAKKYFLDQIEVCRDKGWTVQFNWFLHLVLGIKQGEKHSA"}, "source": "ChEMBL document CHEMBL3400096", "about": "“6,7-Dihydrobenzo[f]benzo[4,5]imidazo[1,2-d][1,4]oxazepine derivatives as selective inhibitors of PI3Kα” (Bioorg Med Chem, 2015)", "key": {"[1]": {"biological_target": "Phosphatidylinositol 4,5-bisphosphate 3-kinase catalytic subunit beta isoform (Homo sapiens, UniProt P42338)", "test": "Inhibition of recombinant PI3Kbeta (unknown origin) […] after 3 hrs incubation by competitive fluorescence polarization kinase activity assay"}, "[2]": {"biological_target": "Phosphatidylinositol 4,5-bisphosphate 3-kinase catalytic subunit gamma isoform (Homo sapiens, UniProt P48736)", "test": "Inhibition of recombinant PI3Kgamma (unknown origin) using […] as substrate after 3 hrs incubation by competitive fluorescence polarization kinase activity assay"}}}
{"smiles": "O=c1cc(N2CCOCC2)oc2c(-c3ccccc3)cccc12", "note": "[LY-294002]", "values": [{"measurement": "IC50", "setting": "[1]", "result": 983, "unit": "nM"}, {"measurement": "IC50", "setting": "[2]", "result": 947, "unit": "nM"}]}
